Only a part is listed here, and it is no random draw. Calls of active or inactive are those of the source.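 The calls were made as follows: active = fluorescence slope after compound addition differing from the mean of all screened samples at 99.7% confidence, in either direction; inactive = the rest.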
target: Alpha-2C adrenergic receptor (Homo sapiens) (UniProt P18825); assay: modulators of alpha2C/GIRK thallium flux, primary screen, cell-based, HEK293 alpha2C/GIRK1/2 (AID 624); conditions: thallium flux BTC fluorescence, at 10 µM, actives lie on both sides;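 also: slope of fluorescence ratio to pre-addition baseline per second over 15 to 24 s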

Amino acid sequences for entries named in this document (tags omitted).
UniProt P18825, whole entry: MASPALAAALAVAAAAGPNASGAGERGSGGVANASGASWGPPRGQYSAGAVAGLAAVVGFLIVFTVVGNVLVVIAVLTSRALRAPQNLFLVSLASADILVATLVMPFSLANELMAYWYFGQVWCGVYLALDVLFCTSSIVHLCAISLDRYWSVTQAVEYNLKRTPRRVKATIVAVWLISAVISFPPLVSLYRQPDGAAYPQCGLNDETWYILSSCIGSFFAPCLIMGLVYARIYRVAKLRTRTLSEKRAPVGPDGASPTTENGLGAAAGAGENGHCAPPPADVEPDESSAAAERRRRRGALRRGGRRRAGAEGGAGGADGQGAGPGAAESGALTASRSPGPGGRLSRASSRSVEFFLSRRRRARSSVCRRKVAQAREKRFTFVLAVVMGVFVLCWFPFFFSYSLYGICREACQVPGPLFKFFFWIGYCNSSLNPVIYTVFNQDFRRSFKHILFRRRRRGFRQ

SMILES | slope
Fc1ccccc1NC1CCN(Cc2ccccc2)CC1 | inactive: 0.0055

Reference: PubChem BioAssay AID624 (Vanderbilt High Throughput Screening Facility, 2007)
